Reference: ChEMBL document CHEMBL4680299, “Lead optimization of the VU0486321 series of mGlu PAMs. Part 4: SAR reveals positive cooperativity across multiple mGlu receptor subtypes leading to subtype unselective PAMs” (Bioorg Med Chem Lett, 2021)
Activity calls are given as the source filed them. The rule behind the calls is not given here.

Sequences of proteins named here, by UniProt entry; tags and fusion partners are left off. A change or cut given only in a name is not applied to a line headed by its entry.
UniProt Q14416: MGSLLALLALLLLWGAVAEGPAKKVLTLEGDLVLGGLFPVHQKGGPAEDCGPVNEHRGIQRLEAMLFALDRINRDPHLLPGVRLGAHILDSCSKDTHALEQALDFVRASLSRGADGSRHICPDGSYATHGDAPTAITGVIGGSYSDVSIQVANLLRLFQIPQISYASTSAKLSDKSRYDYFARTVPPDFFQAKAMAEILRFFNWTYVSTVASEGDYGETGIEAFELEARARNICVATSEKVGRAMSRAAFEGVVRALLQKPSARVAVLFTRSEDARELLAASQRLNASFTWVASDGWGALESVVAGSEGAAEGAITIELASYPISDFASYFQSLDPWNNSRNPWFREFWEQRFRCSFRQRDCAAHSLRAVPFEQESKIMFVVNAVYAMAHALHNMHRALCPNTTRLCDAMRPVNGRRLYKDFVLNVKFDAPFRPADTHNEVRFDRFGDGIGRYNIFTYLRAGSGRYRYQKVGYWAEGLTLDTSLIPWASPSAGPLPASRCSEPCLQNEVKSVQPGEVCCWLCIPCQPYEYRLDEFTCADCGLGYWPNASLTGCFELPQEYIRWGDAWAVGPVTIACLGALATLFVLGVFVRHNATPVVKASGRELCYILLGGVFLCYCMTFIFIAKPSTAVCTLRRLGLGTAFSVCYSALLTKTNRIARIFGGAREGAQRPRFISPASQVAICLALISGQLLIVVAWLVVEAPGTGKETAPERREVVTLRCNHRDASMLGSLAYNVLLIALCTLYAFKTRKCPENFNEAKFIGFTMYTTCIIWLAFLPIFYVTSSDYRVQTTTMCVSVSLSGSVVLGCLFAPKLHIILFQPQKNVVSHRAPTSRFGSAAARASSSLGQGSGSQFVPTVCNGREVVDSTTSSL
UniProt Q14832: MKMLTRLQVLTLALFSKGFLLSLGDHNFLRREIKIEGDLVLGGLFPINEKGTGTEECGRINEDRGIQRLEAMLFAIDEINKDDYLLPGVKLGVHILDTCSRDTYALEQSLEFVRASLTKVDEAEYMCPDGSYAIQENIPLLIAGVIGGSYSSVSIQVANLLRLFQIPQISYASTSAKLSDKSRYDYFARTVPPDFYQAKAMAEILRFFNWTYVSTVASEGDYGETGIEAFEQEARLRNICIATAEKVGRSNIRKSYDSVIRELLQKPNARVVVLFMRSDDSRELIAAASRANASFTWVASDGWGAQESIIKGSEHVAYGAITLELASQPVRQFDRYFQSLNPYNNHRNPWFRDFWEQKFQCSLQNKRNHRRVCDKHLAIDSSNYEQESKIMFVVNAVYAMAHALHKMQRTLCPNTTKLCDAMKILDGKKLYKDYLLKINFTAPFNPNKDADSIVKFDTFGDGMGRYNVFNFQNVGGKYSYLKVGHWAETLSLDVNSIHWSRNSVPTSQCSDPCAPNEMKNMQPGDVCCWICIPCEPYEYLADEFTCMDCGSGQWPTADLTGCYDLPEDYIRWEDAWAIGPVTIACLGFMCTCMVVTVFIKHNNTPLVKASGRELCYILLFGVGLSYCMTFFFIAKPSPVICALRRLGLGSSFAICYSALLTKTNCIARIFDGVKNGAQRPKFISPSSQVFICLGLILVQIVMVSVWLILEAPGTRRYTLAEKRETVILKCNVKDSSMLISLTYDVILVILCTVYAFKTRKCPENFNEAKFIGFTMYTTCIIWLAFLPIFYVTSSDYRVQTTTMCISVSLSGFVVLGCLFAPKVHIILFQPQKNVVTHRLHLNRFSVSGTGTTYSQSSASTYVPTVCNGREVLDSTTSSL

What was measured:
[1] = molecular target: Metabotropic glutamate receptor 2 (Homo sapiens, UniProt Q14416); assay: Positive allosteric modulation of mGluR2 (unknown origin) at 10 uM in presence of glutamate by calcium mobilization assay; assay type: functional
[2] = molecular target: Metabotropic glutamate receptor 3 (Homo sapiens, UniProt Q14832); assay: Positive allosteric modulation of mGluR3 (unknown origin) at 10 uM in presence of glutamate by calcium mobilization assay; assay type: functional

Activity [1]: inactive
Activity [2]: inactive
SMILES: Cc1cc(NC(=O)c2occc2C)c(F)cc1N1C(=O)c2ccccc2C1=O
